Experimental data reported in article PMC8503589 (The Journal of Biological Chemistry, 2021).

Legend:
Assay in all cases: purified protein
Details in all cases: 50 mM HEPES pH 7.7, 100 mM NaCl, 20 μM PLP, 1 mM DTT, 26 °C
purified protein [1] = substrate: N=C(N)NCCC[C@H](N)C(=O)O
purified protein [2] = substrate: NCCC[C@H](N)C(=O)O
purified protein [3] = substrate: NCCCC[C@H](N)C(=O)O

B1: T. thermosaccharolyticum O/LDC (aO/LDC) (Thermoanaerobacterium thermosaccharolyticum DSM 571) (protein)
chain: MEKLNHFETPLFDALMEYVNNNTIPFHVPGHKKGNGMAKKFFDFVGKNVLSMDVTVFEQVDSLHKPTGPIKKAQELAADAFGADATFFCIHGTSGAIQAMILSVMGENEKIIVPRNIHKSVTSGIILSGAIPVYMQPEVDKNVGVALNVTPETVEEALRNNPDAKAVLIINPTYYGVSADIVKIAEIVHDYGAILMVDEAHGPHLKFNEKLPISAMEAGADICAQSTHKIIGSMTQSSMLHVKSKRIDINRVKQVMSLLQTTSPSYILLASLDVARMQMVTEGKQLLDKTIELAEYARKEINNINGLYCFGNEIVGRDGAYDFDPTKITITAKGLGITGHELENILAKKYYIQPELADMYNALCVFSIGDTKENVDYLIRALREISETLYKDNVEMSKALDIPEIPEMVLSPRYAFECSNVALPLEESIGQISSEFLMAYPPGIPILCPGERITREIIEYVIEMKNAKLSIQGTEDPNVEYIKVVNDLQILNITA
Purified protein [1]
  Km: 660 ± 100 µM
  kcat: 0.38 s⁻¹
  kcat/Km: 580 M⁻¹ s⁻¹
Purified protein [2]
  Km: 700 ± 60 µM
  kcat: 0.87 s⁻¹
  kcat/Km: 1300 M⁻¹ s⁻¹
Purified protein [3]
  Km: 500 ± 10 µM
  kcat: 0.57 s⁻¹
  kcat/Km: 1100 M⁻¹ s⁻¹
